Bioassay records (PubChem BioAssay)
Only some compounds are listed: those with a hit (about 0.34% of all), similar ones and a draw of the others.
miR-21 FLuc – miR-21 reporter, rising signal | AID 2288 | HeLa miR-21 FLuc reporter, luciferase, 48 h | 340,000 tested, under 10 active | Potency, µM (titrated, usually from 38.3 µM); active = well fitted rising curve with a large enough effect; inconclusive = small, poorly fitted or top-dose-only effect; inactive = no such curve, though single readings can be large or run the other way;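 also: miR-21 action dims this reporter so a rising signal means less miR-21 action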
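HeLa miR-21-FLuc reporter line, endogenous miR-21; 2000 cells/well in DMEM/10% FBS; compound titration up to ~40uM final, 48 h, 37 degree Celsius; luciferase detection reagent, 15 min lysis, CCD luminescence.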
uPA surface inh – inhibitors of cell surface uPA generation. actives 0.31% (n = 330,000). AID 540303. cell surface uPA generation assay, qHTS. Potency, µM (highest dose often 38.3 µM), hits mostly inhibitors; active = well fitted inhibition curve with a large enough effect; inconclusive = small, poorly fitted or top-dose-only effect; inactive = no such curve, though single readings can be large or run the other way; tested in mouse RAW 264.7 cells; note: nearly all actives have a fitted effect of over 55% in size
TRPML1 inh – inhibitors of human TRPML1 channel; AID 624415; TRPML1-inducible cells, Ca2+ dye fluorescence, FDSS; hits give low values; inhibition of EC80 agonist-evoked calcium signal; activity change, negative = inhibition, % (no concentration beside the values); actives 0.02% (n = 390,000); in the data active = activity change below about -50%; inconclusive = between about -30% and that limit;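 note: stimulus is agonist 54-4 at its EC80 concentration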
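TRPML1-DL cells, Tet-induced overnight (~16 h, 37 °C) at 1,500 cells/well, were loaded with Ca8 no-wash dye plus quencher for 45-90 min at room temperature. Compounds were pinned during FDSS kinetic reading; agonist 54-4 at EC80 (4 uM final) then added.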
TRPML1 agonist – human mucolipin-1 channel agonism | Q9GZU1 | TRPML1-expressing cells, Ca2+ dye fluorescence, FDSS | activation, % (no concentration beside the values) | actives 0.12% (n = 410,000) | AID 624414; in the data active = activation above about 50%; inconclusive = mostly about 30% to 49%
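Calcium fluorescence on an FDSS kinetic reader gave the read-out. Tet-induced TRPML1-DL cells were plated overnight, dye-loaded (Ca8 with quencher, 45-90 min, room temperature, dark), then read 110 s after compound addition, and again 110 s after 4uM final 54-4 (EC80).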
Hits are given with their value; . = inactive; ? = inconclusive; / = no result.

SMILES	miR-21 FLuc	uPA surface inh	TRPML1 inh	TRPML1 agonist
COc1cc(/C=c2\[nH]c(=O)/c(=C/c3cc(OC)c(OC)c(OC)c3)[nH]c2=O)cc(OC)c1OC	/	/	/	.
COc1ccc(Cl)cc1NC(=O)CN(C)C(=O)c1cc2c(F)cccc2s1	/	6.3µM	.	.
COc1ccc(Cl)cc1NC(=O)CN(C)C(=O)c1ccc(C)s1	/	.	.	.
COc1ccc(Cl)cc1NC(=O)CN(C)CC(=O)Nc1cc(OC)c(OC)c(OC)c1	.	3.5µM	.	.
O=C(O)CN1C(=O)c2cccc3c(Br)ccc1c23	.	.	.	.
CCCCNc1ccc2c3c(cccc13)C(=O)N(CCCC)C2=O	.	.	.	110
CN(C)CCCN1C(=O)c2cccc3c(Br)ccc(c23)C1=O	.	7.9µM	.	.
CCCN1C(=O)c2cccc3c(N4CCCCC4)ccc(c23)C1=O	.	.	.	.
COc1cc2nc(N3CCCN(C)CC3)nc(N)c2cc1OC	/	/	/	.
CN(C)c1ccc(C=O)cc1Cl	/	/	/	.
C[C@H]1C=CC(=O)O[C@H]1c1ccccc1	/	2.5µM	.	.
CCOc1ccc(S(=O)(=O)N2CN(c3cccc(C(C)=O)c3)c3nc4ccccc4nc32)cc1	/	.	.	64
CCOc1ccc(S(=O)(=O)N2CCN(S(=O)(=O)c3ccc(C(C)=O)cc3)CC2)cc1	.	.	.	.
CCN(CC)c1ccc(/C=C/c2nccc3ccccc23)cc1	/	/	/	64
CN(C)c1ccc(C=Cc2nccc3ccccc23)cc1	/	/	/	.
CCN(CC)c1nc(C=Cc2ccc(N(C)C)cc2)c2nccnc2n1	/	/	.	64
COc1cc2nc(N3CCCCC3)nc(NC3CCN(C)CC3)c2cc1OC	/	/	/	.
O=C(CCN1C(=O)/C(=C/c2ccccc2Cl)SC1=S)NC1C=CS(=O)(=O)C1 (centres undefined)	.	7.9µM	.	.
CCOc1cc(/C=N/NC(=O)c2ccccc2-n2cccc2)ccc1O	/	11µM	.	.
CC(C)C[C@H]1CN=C(Nc2ccccc2)N1CCc1cccc(F)c1	/	?	.	80
Cc1cc2ncc(-c3ccc(Cl)cc3)c(N)n2n1	.	3.5µM	.	.
Nc1c(-c2ccccc2)cnc2cc(-c3ccccc3)nn12	.	?	.	.
CCCOc1ccc(/C=C/c2[nH]c(=O)[nH]c(=O)c2[N+](=O)[O-])cc1OCC	.	.	.	.
CCOc1cc(/C=C\c2[nH]c(=O)[nH]c(=O)c2[N+](=O)[O-])ccc1OC(C)CC (centres undefined)	.	/	-71	.
COC(=O)C[C@H]1c2cc(F)ccc2S(=O)(=O)N1C1CC1	/	/	/	.
SMILES	miR-21 FLuc	uPA surface inh	TRPML1 inh	TRPML1 agonist
O=C(Cn1ncc(Cl)c(Cl)c1=O)N1CCN(Cc2ccccc2)CC1	?	11µM	.	.
O=C(Cn1ncc(Cl)c(Cl)c1=O)N1CCOCC1	?	.	.	.
CC1=C(C(=O)OCc2ccc3nsnc3c2)N2C(=O)[C@@H](NC(=O)OCc3ccc4nsnc4c3)[C@H]2SC1	/	/	/	.
COc1cc(-c2nc3ccccn3c2NCc2ccccc2)ccc1SC1CCCCC1	/	?	.	.
COc1cc(-c2nc3ccc(C)cn3c2NCc2ccccc2)ccc1SC1CCCCC1	/	8.9µM	.	.
CCOC(=O)N1CCN(c2c(NCc3ccc(F)cc3)c(=O)c2=O)CC1	?	.	/	/
CCOC(=O)N1CCN(c2c(NCc3ccc(Cl)cc3)c(=O)c2=O)CC1	.	2.8µM	.	.
COc1cccc(C2CC(=O)Nc3cc4c(cc32)CCC4)c1 (centres undefined)	?	11µM	.	.
COc1cccc(C2CC(=O)Nc3cc(OC)c(OC)cc32)c1 (centres undefined)	.	.	.	.
CCC(=O)NC(c1ccc(OC)cc1)c1c(O)ccc2ccccc12 (centres undefined)	.	5.6µM	.	.
O=C(NCC1CC1)c1ccc2nc(-c3ccoc3)c(-c3ccoc3)nc2c1	/	/	/	.
C=CCNC(=O)c1ccc2c3n(nc2c1)-c1ccc(Cl)cc1CO3	/	5µM	.	.
O=C(NCC1CC1)c1ccc2c3n(nc2c1)-c1ccccc1CO3	.	1.4µM	.	.
O=C(NCCO)c1ccc2c3n(nc2c1)-c1ccccc1CO3	.	2.8µM	.	.
COC(=O)c1ccc([C@H]2CC(=O)O2)cc1	.	4.5µM	.	.
O=c1cc[nH]c2c1ccc1cccnc12	/	.	.	.
Nc1nc(=S)c2[nH]cnc2[nH]1	/	0.16µM	.	.
Nc1nc(=S)c2[nH]c(=S)[nH]c2[nH]1	/	.	.	.
Cc1cc(=O)[nH]c(N/N=C/c2ccccc2C(F)(F)F)n1	.	.	?	.
Cc1cc(=O)[nH]c(N/N=C/c2cc(C)n(CC(F)(F)F)c2C)n1	.	0.25µM	.	.
OC(CBr)C[n+]1cc(Br)cc2ccccc21 (centres undefined)	/	/	/	.
Cc1c(F)cccc1NC(=O)CSCC(=O)Nc1ccccc1	.	.	-55	.
CCc1ccccc1N(C)C	/	/	/	.
C/C(=N\Nc1ncnc2sc(C)c(C)c12)c1ccccn1	?	.	.	58
CNS(=O)(=O)c1cc2c3c(cccc3c1)C(=O)NC2=O	.	7.1µM	.	.
SMILES	miR-21 FLuc	uPA surface inh	TRPML1 inh	TRPML1 agonist
COc1cc2nc(N3CCCCC3)nc(NC(C)C)c2cc1OC	/	/	/	.
COc1cc2nc(Cl)nc(NC(C)C)c2cc1OC	/	/	/	.
COc1ccccc1-c1ccc(/C=C2/C=C(C)OC2=O)o1	.	.	.	.
COc1ccccc1-c1ccc(/C=C2\C=CC(=O)O2)o1	.	.	.	84
O=C(Nc1cccn(Cc2c(F)cccc2Cl)c1=O)NC1CCCCC1	.	11µM	.	.
CCOC(=O)/C(C#N)=C(C)/C=C1\Sc2ccccc2N1CC	.	.	.	52
CCN1/C(=C\C=C(C(C)=O)C(C)=O)Sc2ccccc21	.	.	.	.
COc1cc2ccccc2nn1	.	.	.	.
COc1ccc2c(n1)Sc1nc3ccccc3nc1N2	.	.	.	82
Clc1ccc2c(ccc[n+]2CCC2CCCCC2)c1	/	/	/	.
Cc1sc(NC(=O)C2CCCCC2)c(C#N)c1-c1ccccc1	.	.	.	83
C1=Cc2ccccc2/C1=C\c1cc[cH-]c1.[Fe+2].c1cc[cH-]c1	/	/	/	.
COc1ccc(O)cc1	/	6.3µM	/	/
COc1cc(Cl)c(CC(=O)NO)cc1OC	/	/	/	.
CCCCCC[n+]1ccccc1/C=C/c1ccc(N(C)C)cc1	/	/	.	69
COc1ccc(CN2CC[C@H]3C=CC[C@@H](C(=O)Nc4ccc(Cl)cc4Cl)[C@H]3C2=O)cc1OC	/	/	/	.
Cc1ccc(NC(=S)NC(=O)c2ccc(-c3ccc(Cl)cc3)o2)c(O)c1	.	.	.	.
Cc1ccc(O)c(NC(=S)NC(=O)Cc2ccc(Cl)cc2)c1	.	.	.	75
O=S1(=O)CCO[C@H]2CCCC[C@@H]2N1Cc1ccccc1	/	/	/	.
CCCCCCCCCCCCCCCC[n+]1ccc(C)c2ccccc21	/	/	/	.
CCCCCCCC[n+]1cccc2c3ccccc3ccc21	?	0.89µM	.	.
CCCCCCCCCC[n+]1cccc2cc(Cl)ccc21	/	/	/	.
CCCCCCCCCC[n+]1cccc2c3ccccc3ccc21	.	0.71µM	.	.
C(=C\c1ccnc2ccccc12)/c1ccc(N(Cc2ccccc2)Cc2ccccc2)cc1	/	/	/	.
